“And” between values parts separate entries of the source, which are not always exact repeats. Equal entries are not always repeated.
Assays:
Experiment in all cases: radiometric filter-binding kinase assay, Kinase HotSpot
Details in all cases: compound 0.5 µM; ATP 10 µM
[1] = molecular target: NEK3 (human) (UniProt P51956)
[2] = molecular target: CDC42BPA (human) (UniProt Q5VT25)
[3] = molecular target: ULK1 (human) (UniProt O75385)
[4] = molecular target: AURKC (human) (UniProt Q9UQB9)
[5] = molecular target: PBK (human) (UniProt Q96KB5)
[6] = molecular target: NUAK2 (human) (UniProt Q9H093)
[7] = molecular target: IRAK4 (human) (UniProt Q9NWZ3)
[8] = molecular target: PLK2 (human) (UniProt Q9NYY3)
[9] = molecular target: HCK (human) (UniProt P08631)
[10] = molecular target: NLK (human) (UniProt Q9UBE8)
[11] = molecular target: EPHB2 (human) (UniProt P29323)
[12] = molecular target: PRKACA (human) (UniProt P17612)
[13] = molecular target: PRKG1 (human) (UniProt Q13976)
[14] = molecular target: PHKG2 (human) (UniProt P15735)
[15] = molecular target: MAPK12 (human) (UniProt P53778)
[16] = molecular target: MERTK (human) (UniProt Q12866)
[17] = molecular target: RPS6KB1 (human) (UniProt P23443)
[18] = molecular target: STK4 (human) (UniProt Q13043)
[19] = molecular target: HIPK3 (human) (UniProt Q9H422)
[20] = molecular target: WNK2 (human) (UniProt Q9Y3S1)
[21] = molecular target: EPHA6 (human) (UniProt Q9UF33)
[22] = molecular target: JAK2 JH1 JH2 (human) (UniProt O60674)
[23] = molecular target: ADRBK2 (human) (UniProt P35626)
[24] = molecular target: ADRBK1 (human) (UniProt P25098)
[25] = molecular target: SGK3 (human) (UniProt Q96BR1)
[26] = molecular target: TBK1 (human) (UniProt Q9UHD2)
[27] = molecular target: CAMK1 (human) (UniProt Q14012)
[28] = molecular target: FRK (human) (UniProt P42685)
[29] = molecular target: AURKA (human) (UniProt O14965)
[30] = molecular target: ROCK1 (human) (UniProt Q13464)
[31] = molecular target: MARK3 (human) (UniProt P27448)
[32] = molecular target: CAMK2B (human) (UniProt Q13554)
[33] = molecular target: EPHA8 (human) (UniProt P29322)
[34] = molecular target: PKN1 (human) (UniProt Q16512)
[35] = molecular target: PDPK1 (human) (UniProt O15530)
[36] = molecular target: JAK1 JH1 catalytic (human) (UniProt P23458)
[37] = molecular target: MAP4K5 (human) (UniProt Q9Y4K4)
[38] = molecular target: PRKCB1 (human) (UniProt P05771)
[39] = molecular target: EPHA1 (human) (UniProt P21709)
[40] = molecular target: DSTYK (human) (UniProt Q6XUX3)
[41] = molecular target: IKBKE (human) (UniProt Q14164)
[42] = molecular target: FGFR2 (human) (UniProt P21802)

Protein sequences, listed by entry. Tags and fused reporters are not part of them. Lines headed by an entry give the natural chain unless they say otherwise; changes in a name come on top.
UniProt Q5VT25: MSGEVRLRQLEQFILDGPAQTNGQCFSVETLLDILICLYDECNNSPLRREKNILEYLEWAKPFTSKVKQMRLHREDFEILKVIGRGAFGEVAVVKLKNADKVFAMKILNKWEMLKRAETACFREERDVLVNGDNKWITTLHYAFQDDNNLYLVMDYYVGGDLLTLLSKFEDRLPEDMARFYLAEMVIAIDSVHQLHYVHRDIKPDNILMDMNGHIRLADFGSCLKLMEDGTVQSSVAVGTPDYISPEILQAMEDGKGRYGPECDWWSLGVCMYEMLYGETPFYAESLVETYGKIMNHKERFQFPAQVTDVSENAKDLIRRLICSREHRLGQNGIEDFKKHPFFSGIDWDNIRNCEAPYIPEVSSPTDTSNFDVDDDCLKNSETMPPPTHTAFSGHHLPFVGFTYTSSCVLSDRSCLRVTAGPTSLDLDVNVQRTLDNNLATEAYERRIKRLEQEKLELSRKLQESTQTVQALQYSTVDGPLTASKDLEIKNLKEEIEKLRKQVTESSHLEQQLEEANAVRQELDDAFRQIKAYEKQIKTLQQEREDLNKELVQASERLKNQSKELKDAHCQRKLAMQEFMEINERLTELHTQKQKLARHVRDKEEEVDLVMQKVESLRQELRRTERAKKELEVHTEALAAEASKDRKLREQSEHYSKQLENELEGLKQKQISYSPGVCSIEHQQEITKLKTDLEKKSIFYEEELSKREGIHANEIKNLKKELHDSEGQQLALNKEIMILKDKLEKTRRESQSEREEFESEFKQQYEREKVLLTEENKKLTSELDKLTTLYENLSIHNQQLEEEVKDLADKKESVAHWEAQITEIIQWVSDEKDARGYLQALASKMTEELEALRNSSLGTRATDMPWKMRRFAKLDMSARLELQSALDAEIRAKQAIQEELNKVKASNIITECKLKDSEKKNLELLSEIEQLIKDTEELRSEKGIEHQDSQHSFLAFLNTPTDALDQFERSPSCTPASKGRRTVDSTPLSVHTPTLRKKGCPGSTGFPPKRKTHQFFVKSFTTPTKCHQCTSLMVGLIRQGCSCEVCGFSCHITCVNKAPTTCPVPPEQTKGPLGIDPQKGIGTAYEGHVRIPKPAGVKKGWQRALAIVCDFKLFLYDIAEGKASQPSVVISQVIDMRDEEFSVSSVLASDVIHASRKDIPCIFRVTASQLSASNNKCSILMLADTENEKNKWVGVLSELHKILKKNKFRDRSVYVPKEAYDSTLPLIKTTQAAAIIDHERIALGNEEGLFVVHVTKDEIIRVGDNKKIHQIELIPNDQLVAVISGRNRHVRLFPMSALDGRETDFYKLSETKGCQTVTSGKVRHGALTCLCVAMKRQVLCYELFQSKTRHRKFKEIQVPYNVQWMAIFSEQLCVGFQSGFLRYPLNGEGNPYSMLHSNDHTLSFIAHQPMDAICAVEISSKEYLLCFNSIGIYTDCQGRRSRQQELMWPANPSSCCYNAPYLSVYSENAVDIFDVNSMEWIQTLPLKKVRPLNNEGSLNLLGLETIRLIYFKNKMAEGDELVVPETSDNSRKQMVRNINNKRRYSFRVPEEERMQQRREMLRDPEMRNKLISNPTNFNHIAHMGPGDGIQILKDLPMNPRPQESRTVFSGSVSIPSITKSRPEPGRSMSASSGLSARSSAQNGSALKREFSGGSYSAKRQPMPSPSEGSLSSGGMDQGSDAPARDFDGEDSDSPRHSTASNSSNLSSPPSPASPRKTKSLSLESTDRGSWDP
UniProt Q9UQB9: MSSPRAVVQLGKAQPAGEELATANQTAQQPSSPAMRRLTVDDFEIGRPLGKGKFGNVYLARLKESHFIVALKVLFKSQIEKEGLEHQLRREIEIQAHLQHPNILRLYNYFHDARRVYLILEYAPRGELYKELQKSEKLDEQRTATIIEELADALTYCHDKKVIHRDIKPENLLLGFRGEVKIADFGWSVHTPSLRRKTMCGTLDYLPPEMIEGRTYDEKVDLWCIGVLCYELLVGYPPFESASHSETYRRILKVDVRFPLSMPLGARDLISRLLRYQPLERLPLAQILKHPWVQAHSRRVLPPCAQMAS
UniProt Q96KB5: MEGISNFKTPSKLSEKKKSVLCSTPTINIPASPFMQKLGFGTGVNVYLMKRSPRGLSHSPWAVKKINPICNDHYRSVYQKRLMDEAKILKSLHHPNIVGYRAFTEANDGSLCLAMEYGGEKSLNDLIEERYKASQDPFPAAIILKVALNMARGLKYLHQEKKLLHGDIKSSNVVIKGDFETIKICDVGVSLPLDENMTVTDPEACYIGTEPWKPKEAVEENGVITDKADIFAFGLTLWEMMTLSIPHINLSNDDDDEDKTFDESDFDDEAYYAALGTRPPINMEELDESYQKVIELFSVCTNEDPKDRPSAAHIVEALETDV
UniProt P35626: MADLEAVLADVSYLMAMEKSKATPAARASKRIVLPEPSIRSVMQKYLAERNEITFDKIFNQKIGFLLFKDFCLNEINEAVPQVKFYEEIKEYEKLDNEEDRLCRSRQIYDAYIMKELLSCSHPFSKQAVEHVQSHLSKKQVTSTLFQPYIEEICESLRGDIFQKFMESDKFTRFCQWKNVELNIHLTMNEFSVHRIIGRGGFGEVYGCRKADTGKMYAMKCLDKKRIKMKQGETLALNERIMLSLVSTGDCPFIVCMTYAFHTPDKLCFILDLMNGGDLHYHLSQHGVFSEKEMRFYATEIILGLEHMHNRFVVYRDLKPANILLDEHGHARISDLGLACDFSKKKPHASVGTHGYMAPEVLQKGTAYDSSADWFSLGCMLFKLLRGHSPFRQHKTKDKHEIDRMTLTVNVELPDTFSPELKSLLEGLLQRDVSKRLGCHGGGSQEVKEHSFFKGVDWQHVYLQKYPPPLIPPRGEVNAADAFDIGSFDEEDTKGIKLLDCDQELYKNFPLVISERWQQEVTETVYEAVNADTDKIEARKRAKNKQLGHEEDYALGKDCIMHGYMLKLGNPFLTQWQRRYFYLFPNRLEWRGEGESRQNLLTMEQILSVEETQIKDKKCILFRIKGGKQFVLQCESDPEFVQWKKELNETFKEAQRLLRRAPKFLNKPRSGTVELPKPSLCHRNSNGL
UniProt Q14012: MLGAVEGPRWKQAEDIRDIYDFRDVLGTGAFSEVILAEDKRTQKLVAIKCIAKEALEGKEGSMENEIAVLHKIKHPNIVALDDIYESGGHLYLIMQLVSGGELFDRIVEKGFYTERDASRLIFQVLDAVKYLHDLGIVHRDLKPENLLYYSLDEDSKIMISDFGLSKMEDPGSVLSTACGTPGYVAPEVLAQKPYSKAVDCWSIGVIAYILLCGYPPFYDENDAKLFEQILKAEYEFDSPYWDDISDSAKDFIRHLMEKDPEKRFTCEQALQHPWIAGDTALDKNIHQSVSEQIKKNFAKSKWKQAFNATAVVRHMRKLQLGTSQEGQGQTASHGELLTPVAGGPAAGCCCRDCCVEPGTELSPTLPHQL
UniProt O14965: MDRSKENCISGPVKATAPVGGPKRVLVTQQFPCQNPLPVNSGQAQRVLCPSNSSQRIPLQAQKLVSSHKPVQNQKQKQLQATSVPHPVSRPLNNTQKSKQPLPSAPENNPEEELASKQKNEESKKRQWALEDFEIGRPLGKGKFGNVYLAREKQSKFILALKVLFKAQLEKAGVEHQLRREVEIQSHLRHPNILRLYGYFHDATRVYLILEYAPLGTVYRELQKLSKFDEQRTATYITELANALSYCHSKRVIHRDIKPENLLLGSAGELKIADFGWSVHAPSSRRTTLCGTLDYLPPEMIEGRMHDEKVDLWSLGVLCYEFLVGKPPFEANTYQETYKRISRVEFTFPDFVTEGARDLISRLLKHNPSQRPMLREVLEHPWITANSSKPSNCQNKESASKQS
UniProt Q16512: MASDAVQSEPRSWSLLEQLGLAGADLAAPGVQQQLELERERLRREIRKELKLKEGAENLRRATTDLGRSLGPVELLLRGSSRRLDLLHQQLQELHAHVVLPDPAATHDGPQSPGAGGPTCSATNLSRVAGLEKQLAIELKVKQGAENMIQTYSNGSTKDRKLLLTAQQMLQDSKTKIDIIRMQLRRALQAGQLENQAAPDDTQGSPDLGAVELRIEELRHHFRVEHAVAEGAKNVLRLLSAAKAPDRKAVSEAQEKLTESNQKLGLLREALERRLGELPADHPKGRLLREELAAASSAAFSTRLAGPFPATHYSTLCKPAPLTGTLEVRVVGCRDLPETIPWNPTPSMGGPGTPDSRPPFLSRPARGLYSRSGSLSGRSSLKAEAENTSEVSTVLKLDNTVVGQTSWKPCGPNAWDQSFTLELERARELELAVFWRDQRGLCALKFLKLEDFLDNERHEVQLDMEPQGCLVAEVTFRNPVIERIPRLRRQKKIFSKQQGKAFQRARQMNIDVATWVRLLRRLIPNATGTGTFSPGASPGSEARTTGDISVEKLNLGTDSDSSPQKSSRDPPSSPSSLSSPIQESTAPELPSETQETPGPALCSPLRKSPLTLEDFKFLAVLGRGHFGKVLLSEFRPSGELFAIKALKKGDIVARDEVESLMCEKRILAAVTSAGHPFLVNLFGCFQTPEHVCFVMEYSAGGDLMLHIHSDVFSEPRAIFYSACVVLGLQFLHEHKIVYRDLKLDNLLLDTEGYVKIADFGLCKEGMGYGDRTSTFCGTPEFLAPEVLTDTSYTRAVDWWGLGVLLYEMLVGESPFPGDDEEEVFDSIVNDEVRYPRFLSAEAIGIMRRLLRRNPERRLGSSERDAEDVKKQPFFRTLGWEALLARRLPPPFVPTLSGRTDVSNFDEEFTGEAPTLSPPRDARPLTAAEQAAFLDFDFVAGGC
UniProt O15530: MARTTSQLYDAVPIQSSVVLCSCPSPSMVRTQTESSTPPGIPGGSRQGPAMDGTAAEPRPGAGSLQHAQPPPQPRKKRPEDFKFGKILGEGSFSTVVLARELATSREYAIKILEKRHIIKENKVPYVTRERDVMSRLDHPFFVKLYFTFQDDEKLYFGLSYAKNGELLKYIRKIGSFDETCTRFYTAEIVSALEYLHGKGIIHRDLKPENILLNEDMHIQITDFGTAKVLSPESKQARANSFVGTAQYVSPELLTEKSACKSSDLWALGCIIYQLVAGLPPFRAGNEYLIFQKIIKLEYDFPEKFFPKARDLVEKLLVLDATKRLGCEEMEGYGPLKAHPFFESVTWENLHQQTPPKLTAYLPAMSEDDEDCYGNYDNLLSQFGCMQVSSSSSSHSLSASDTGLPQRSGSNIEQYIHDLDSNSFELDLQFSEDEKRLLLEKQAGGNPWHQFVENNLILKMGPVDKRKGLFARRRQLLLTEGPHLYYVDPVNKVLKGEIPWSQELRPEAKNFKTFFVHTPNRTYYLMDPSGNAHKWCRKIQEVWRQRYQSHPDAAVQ
UniProt P23458: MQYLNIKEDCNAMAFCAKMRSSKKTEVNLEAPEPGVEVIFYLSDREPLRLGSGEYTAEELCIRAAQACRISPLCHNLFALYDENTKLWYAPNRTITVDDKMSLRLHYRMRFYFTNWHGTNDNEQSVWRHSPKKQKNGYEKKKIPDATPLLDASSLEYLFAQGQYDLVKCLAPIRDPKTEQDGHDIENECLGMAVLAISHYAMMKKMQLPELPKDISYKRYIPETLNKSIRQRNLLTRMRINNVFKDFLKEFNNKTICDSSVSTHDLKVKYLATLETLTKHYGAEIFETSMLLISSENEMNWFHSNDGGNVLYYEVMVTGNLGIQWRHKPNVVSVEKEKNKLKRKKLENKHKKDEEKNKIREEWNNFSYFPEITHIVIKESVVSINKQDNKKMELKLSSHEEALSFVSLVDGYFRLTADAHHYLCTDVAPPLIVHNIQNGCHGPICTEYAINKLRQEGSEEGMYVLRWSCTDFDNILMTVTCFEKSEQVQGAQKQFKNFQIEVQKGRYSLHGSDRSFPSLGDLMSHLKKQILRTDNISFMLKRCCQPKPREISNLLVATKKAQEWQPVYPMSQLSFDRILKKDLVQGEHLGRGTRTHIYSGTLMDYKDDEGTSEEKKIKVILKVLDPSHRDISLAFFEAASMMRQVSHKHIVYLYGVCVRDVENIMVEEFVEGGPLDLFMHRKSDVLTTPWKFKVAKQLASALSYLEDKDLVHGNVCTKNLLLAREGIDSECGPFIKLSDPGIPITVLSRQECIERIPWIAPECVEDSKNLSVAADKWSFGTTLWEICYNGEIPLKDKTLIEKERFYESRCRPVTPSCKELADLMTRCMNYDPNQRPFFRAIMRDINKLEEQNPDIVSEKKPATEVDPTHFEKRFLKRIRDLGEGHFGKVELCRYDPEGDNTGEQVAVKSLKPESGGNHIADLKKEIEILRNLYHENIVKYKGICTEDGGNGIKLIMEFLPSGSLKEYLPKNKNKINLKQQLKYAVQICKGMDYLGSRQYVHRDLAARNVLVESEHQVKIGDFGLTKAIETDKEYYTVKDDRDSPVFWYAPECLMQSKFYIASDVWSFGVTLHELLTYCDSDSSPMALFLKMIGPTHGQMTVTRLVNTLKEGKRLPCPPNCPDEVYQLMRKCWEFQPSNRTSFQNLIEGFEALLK

With `O=C1Nc2ccc3ncsc3c2/C1=C/c1c[nH]cn1` as the molecule, how does the residual activity [1] read?
Its residual activity is 80.2%.

And the residual activity [2]?
Its residual activity is 94.2%.

What about the residual activity [3] of the same molecule?
The residual activity was 21%.

What about the residual activity [4] of the same molecule?
Its residual activity is 31.4%.

What about the residual activity [5] of the same molecule?
The residual activity was 67.4%.

And the residual activity [6]?
The residual activity was 41.2%.

And the residual activity [7]?
Its residual activity is 59.5%.

And the residual activity [8]?
Its residual activity is 78.7%.

And the residual activity [9]?
Its residual activity is 73.9%.

What about the residual activity [10] of the same molecule?
Its residual activity is 35.5%.

And the residual activity [11]?
Its residual activity is 94.2%.

And the residual activity [12]?
Its residual activity is 40.1%.

And the residual activity [13]?
Its residual activity is 17.5% and 20.3%.

And the residual activity [14]?
Its residual activity is 68.1%.

And the residual activity [15]?
Its residual activity is 92.2%.

And the residual activity [16]?
The residual activity was 75.1%.

And the residual activity [17]?
Its residual activity is 57.1%.

And the residual activity [18]?
Its residual activity is 5.51%.

What about the residual activity [19] of the same molecule?
The residual activity was 78.7%.

What about the residual activity [20] of the same molecule?
The residual activity was 120%.

What about the residual activity [21] of the same molecule?
Its residual activity is 48.6%.

What about the residual activity [22] of the same molecule?
Its residual activity is 69.9%.

What about the residual activity [23] of the same molecule?
Its residual activity is 97.3%.

And the residual activity [24]?
The residual activity was 107%.

And the residual activity [25]?
Its residual activity is 81.2%.

What about the residual activity [26] of the same molecule?
Its residual activity is 18.8%.

What about the residual activity [27] of the same molecule?
The residual activity was 81.9%.

What about the residual activity [28] of the same molecule?
Its residual activity is 85%.

What about the residual activity [29] of the same molecule?
Its residual activity is 20%.

What about the residual activity [30] of the same molecule?
The residual activity was 26%.

What about the residual activity [31] of the same molecule?
Its residual activity is 21.3%.

What about the residual activity [32] of the same molecule?
The residual activity was 40.8%.

What about the residual activity [33] of the same molecule?
The residual activity was 93.4%.

What about the residual activity [34] of the same molecule?
The residual activity was 22%.

What about the residual activity [35] of the same molecule?
Its residual activity is 76.7%.

And the residual activity [36]?
Its residual activity is 53.9%.

And the residual activity [37]?
The residual activity was 6.41%.

What about the residual activity [38] of the same molecule?
Its residual activity is 87.3%.

What about the residual activity [39] of the same molecule?
The residual activity was 83.9%.

And the residual activity [40]?
Its residual activity is 97%.

What about the residual activity [41] of the same molecule?
Its residual activity is 27.6%.

And the residual activity [42]?
Its residual activity is 37.6%.

Source: the kinase profiling compilation of Christmann-Franck et al. (2016)
